Results as given in BindingDB's records for PubMed 9223589 (University of Tours, 1997).

By UniProt entry, the sequences of proteins in these tests, tags left out.
UniProt P31652, whole entry: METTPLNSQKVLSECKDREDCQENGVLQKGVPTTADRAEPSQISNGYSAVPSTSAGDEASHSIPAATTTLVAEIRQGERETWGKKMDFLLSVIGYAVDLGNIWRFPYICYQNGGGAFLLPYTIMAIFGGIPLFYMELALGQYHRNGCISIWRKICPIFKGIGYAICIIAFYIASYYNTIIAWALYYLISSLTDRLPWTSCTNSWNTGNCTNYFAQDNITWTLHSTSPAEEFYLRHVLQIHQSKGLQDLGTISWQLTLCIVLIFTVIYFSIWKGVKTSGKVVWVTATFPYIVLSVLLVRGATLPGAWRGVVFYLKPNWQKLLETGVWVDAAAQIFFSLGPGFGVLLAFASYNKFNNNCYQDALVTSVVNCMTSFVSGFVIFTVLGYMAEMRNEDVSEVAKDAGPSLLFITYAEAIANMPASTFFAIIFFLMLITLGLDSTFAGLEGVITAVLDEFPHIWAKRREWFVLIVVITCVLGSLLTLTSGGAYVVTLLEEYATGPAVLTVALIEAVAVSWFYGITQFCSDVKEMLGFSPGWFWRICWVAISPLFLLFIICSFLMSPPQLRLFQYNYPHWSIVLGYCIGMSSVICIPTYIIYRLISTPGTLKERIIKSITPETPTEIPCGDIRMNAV

Target: Sodium-dependent serotonin transporter (Rattus norvegicus, UniProt P31652)

SMILES: Fc1ccc([C@@H]2CCNC[C@H]2COc2ccc3c(c2)OCO3)cc1 [PAROXETINE]
- Ki: 0.8 nM
